According to patent US20190015361A1, “POLYTHERAPY MODULATING CATHELICIDIN GENE EXPRTESSION MODULATION FOR THE TREATMENT OF ALZHEIMER'S DISEASE AND OTHER CONDITIONS” (Maxwell Biosciences, Inc., priority 2017, published 2019):

What was measured:
SH-SY5Y cells [1] = assay: MTT viability, direct exposure of SH-SY5Y cells; type: cell-based, human; settings: 30 μM, 72 h
human microglia = assay: MTT viability, direct exposure of human microglia; type: cell-based; settings: 30 μM, 72 h
SH-SY5Y cells [2] = assay: Microglia-mediated toxicity to differentiated SH-SY5Y cells (supernatant transfer, MTT); type: cell-based; settings: microglia exposed 2 days to 30 μM peptide, supernatant transferred; after 3 days
endothelial cells = settings: cited from earlier work

LL-37
direct toxicity to SH-SY5Y cells (MTT) (SH-SY5Y cells [1]): neither Aβ nor LL-37 peptide was toxic
direct toxicity to human microglia alone (MTT) (human microglia): neither Aβ nor LL-37 peptide was toxic
SH-SY5Y cell viability (SH-SY5Y cells [2]): 70%
concentration cytotoxic to endothelial cells (endothelial cells; Ciornei et al. 2006): 30000 ng/mL
concentration cytotoxic to endothelial cells lining blood vessels (endothelial cells; Svensson et al. 2017): above 13 μg/mL
